## Measured affinities in a library of Ab-14 heavy chain variants

Source: Li et al. 2023 (doi:10.1038/s41467-023-39022-2), MIT Lincoln Laboratory and A-Alpha Bio; data file from the FLAb repository.

Target peptide (SARS-CoV-2 spike, HR2 region): PDVDLGDISGINAS

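Phage display of a naive human antibody library on the peptide gave the parent. Designed CDR sequences, proposed from the first random library and measured here. Group labels follow the data file (Ctrl: baseline library sampled from a position-specific scoring matrix, with some repeated check sequences; GP: Gaussian process model; GPLM: also part of the Gaussian process libraries; HC: hill climbing; Gen: genetic algorithm; a sequence that several methods proposed may carry one label only). The assay is AlphaSeq: two haploid yeast populations carry antibody and antigen on their surface. The frequency of each diploid, read from paired DNA barcodes, reflects how well the two displayed proteins bind. Scores were corrected for input abundance and mapped to Kd with protein pairs of known affinity run in the same pool. Each pool was mated in six replicate cultures.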

Ab-14 is the parent antibody, in scFv form: VH, then a 15-residue (Gly4Ser)3 linker, then VL. The light chain is unchanged in all variants.
VH: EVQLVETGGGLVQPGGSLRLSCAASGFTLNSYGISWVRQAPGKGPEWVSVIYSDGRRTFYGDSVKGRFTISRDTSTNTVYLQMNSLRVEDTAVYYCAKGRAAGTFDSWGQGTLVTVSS
VL: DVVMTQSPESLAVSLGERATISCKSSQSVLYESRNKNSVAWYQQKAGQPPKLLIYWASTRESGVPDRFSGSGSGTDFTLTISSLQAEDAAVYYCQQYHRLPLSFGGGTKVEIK

Positions count from residue 1 of the parent VH; N30L puts L in place of N.
Scale: log10 of Kd in nM, estimated from mating counts; low values are strong binders.
"nd" marks a missing value. The strain was present, yet no cells mated with the target were sequenced in that replicate, which points to weak or no binding.
A sequence measured in both rounds can read differently, since the two assays cover different ranges.
The parent sequence was in this pool as ten entries: three were never detected, three once, and four in most replicates, with averages from 0.34 to 2.37.
In the paper, a design with two or fewer of six values counts as a poor binder.
A sequence that the file lists under several names has all its replicates listed entry by entry, parted by semicolons.
Nonspecific signal, from three strains lacking the peptide, appeared in 1% of pairings of all heavy chain designs, centred on 2.08 (5% of these signals below 0.84); values are not corrected for it. Also given: how often the same scFv was detected with the empty control strains, with their mean in brackets.

| changes | group | replicates, log10 nM | signal with controls |
|---|---|---|---|
| N30L+R56H | Ctrl | 1.47 / 1.66 / 1.61 / nd / 0.70 / nd | 0/18 |
| S31E+S53A+G61S | Ctrl | 0.98 / 1.13 / 1.12 / 0.28 / 0.85 / 1.03 | 0/18 |
| R56F+G61A | Ctrl | nd / 2.25 / 2.33 / 1.18 / 3.17 / 1.37 | 0/18 |
| G26R+G61A+A101P+D106C | Ctrl | nd / nd / nd / nd / nd / nd | 0/18 |
| T28H+S31Q | Ctrl | nd / 0.92 / nd / 1.51 / 3.81 / 1.76 | 0/18 |
| A101I+A102Y | Ctrl | nd / nd / nd / nd / nd / nd | 0/18 |
| R56I+R100A | Ctrl | 0.67 / 1.72 / 1.37 / 2.06 / 0.94 / 0.87 | 0/18 |
| S31E+R100Q+S107V | Ctrl+GPLM_Gen | 0.96 / 1.01 / 0.51 / 0.53 / 0.44 / 0.52; 0.48 / 0.14 / 0.36 / 0.00 / 0.29 / 0.43 | 1/36 (2.58) |
| R56E+F59H+K65V | Ctrl | nd / nd / nd / nd / nd / 1.94 | 0/18 |
| N30L+S63A | Ctrl | nd / nd / 2.00 / 2.02 / 3.32 / nd | 1/18 (2.96) |
| D54F+R56L+G61A+A102I | Ctrl | nd / nd / nd / nd / nd / nd | 0/18 |
| F27R+A101F | Ctrl | nd / 1.38 / 2.33 / nd / nd / nd | 0/18 |
| R100T+G103T+S107L | Ctrl | nd / nd / nd / nd / nd / nd | 0/18 |
| G26K+F59A+S107L | Ctrl | nd / 2.40 / nd / nd / nd / nd | 0/18 |
| N30D+R57E | Ctrl | nd / 2.99 / nd / nd / nd / 4.19 | 0/18 |
| S31D+T58V | Ctrl | 0.77 / 1.23 / 1.42 / 1.16 / 1.29 / nd | 0/18 |
| T28N+N30K | Ctrl | 1.17 / 0.77 / 1.82 / 2.88 / 0.73 / 1.11 | 0/18 |
| T28E+S31D | Ctrl | 0.11 / 0.43 / 0.60 / 0.48 / 0.25 / -0.24 | 1/18 (3.01) |
| R56I+F105W | Ctrl | 2.11 / 3.10 / 1.21 / 2.05 / 1.57 / 0.94 | 0/18 |
| T28N+F59A+S63Y+G99S+A101N+D106E | Ctrl | nd / nd / nd / nd / nd / nd | 1/18 (2.59) |
| S31E+R100Q+D106V+S107T | Ctrl | 0.44 / 0.66 / 0.48 / -0.49 / 0.03 / 0.13 | 0/18 |
| D62P | Ctrl | nd / nd / nd / nd / nd / nd | 0/18 |
| K65R+A101I | Ctrl | 2.03 / 1.56 / 1.54 / 1.98 / 0.86 / nd | 0/18 |
| F27N+D62Q+K65W+G99T | Ctrl | nd / nd / 2.11 / nd / nd / nd | 1/18 (2.50) |
| S63K+A101T | Ctrl | 1.61 / 2.31 / 0.83 / 1.85 / nd / nd | 0/18 |
| S63K+F105M | Ctrl | nd / nd / nd / nd / nd / nd | 0/18 |
| S31E+A102R+G103F+T104C+S107V | Ctrl | nd / nd / nd / nd / nd / nd | 0/18 |
| S31D+R100A | Ctrl | 2.14 / 2.21 / 2.21 / 1.63 / 2.07 / 2.90 | 0/18 |
| N30D+D106S | Ctrl | nd / nd / nd / nd / nd / nd | 0/18 |
| K65S+S107V | Ctrl | nd / nd / nd / nd / nd / nd | 0/18 |
| T28L+A102E+T104R | Ctrl | nd / nd / nd / nd / nd / 1.90 | 0/18 |
| G61Y+S107C | Ctrl | nd / nd / nd / nd / nd / nd | 0/18 |
| T28Q+N30D+S31K+F59A+Y60M | Ctrl | nd / 1.17 / 1.08 / 0.99 / nd / nd | 0/18 |
| N30A+G61S | Ctrl | 2.17 / 1.44 / 2.41 / 1.32 / 0.95 / 1.55 | 1/18 (2.54) |
| T28R+G61I | Ctrl | nd / 1.62 / nd / nd / nd / nd | 0/18 |
| K65R+G103L+T104A | Ctrl | nd / nd / nd / nd / 1.81 / nd | 0/18 |
| F27N+F59H | Ctrl | nd / 1.29 / nd / nd / nd / nd | 0/18 |
| F27N+T28N+G61I+K65R | Ctrl | nd / nd / nd / nd / nd / nd | 0/18 |
| A101I+D106S | Ctrl | nd / nd / 2.00 / nd / 1.76 / nd | 1/18 (1.33) |
| F59A+T104C | Ctrl | nd / nd / 2.42 / nd / nd / 2.42 | 0/18 |
| T28D+R100Q+A102G | Ctrl+GP_HC | 0.77 / 0.68 / 0.74 / -0.89 / -0.13 / nd; nd / nd / nd / nd / nd / nd | 0/36 |
| T28S+S53R+R56K+R100Y+T104A | Ctrl | nd / nd / nd / nd / nd / nd | 0/18 |
| T28G+G61D | Ctrl | nd / nd / nd / 1.39 / 2.25 / 2.45 | 0/18 |

The first 3 entries again:

| changes | group | replicates, log10 nM | signal with controls |
|---|---|---|---|
| N30L+R56H | Ctrl | 1.47 / 1.66 / 1.61 / nd / 0.70 / nd | 0/18 |
| S31E+S53A+G61S | Ctrl | 0.98 / 1.13 / 1.12 / 0.28 / 0.85 / 1.03 | 0/18 |
| R56F+G61A | Ctrl | nd / 2.25 / 2.33 / 1.18 / 3.17 / 1.37 | 0/18 |